Source: PMC3608422 (Xenobiotica; the fate of foreign compounds in biological …, 2011)

The chains behind the UniProt entries cited, without tags or fusion partners.
UniProt P47746, whole entry: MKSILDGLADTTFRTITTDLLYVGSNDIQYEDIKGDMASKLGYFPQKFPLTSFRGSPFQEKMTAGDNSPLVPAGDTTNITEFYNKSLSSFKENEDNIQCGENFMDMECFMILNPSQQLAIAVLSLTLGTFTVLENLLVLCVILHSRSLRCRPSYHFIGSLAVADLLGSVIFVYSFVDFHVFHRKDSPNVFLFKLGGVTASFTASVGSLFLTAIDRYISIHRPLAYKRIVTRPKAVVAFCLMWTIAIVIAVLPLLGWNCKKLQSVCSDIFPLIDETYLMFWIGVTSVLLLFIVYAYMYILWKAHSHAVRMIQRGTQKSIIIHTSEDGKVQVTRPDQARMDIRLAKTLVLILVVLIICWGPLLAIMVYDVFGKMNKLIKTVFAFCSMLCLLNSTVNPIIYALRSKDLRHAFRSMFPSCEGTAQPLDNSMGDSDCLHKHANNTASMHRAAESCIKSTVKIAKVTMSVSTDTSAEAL

Target: mCB1Rs (Mus musculus, UniProt P47746)
Assay type: biochemical

“(−)-cis-3-[2-Hydroxy-4-(1,1-dimethylheptyl)phenyl]-trans-4-(3-hydroxypropyl)cyclohexanol [CP-55,940, reference compound]” was tested, and the “maximal response (G-protein activation)” value (CP-55,940 alone) was 0.34 ± 0.03 pmol/mg protein, the “ED50 required to activate G-proteins” value (CP-55,940 alone, mouse brain membranes) was 4.3 nM and the “effect on G-protein activity ([35S]GTPγS binding)” value (mouse brain membranes, 1 µM) was “stimulates”.
